Values quoted from earlier work in patent publication US20150111372A1 (priority 2013, published 2015).

Columns and labels:
[1] = HMIS rating
[2] = Table C

Arsenic Acid
FLAMMABILITY [1]: 0 | HEALTH [1]: 4 · | PHYSICAL HAZARD [1]: 1 | Solubility, Water [2]: 302 g/100 g
